Source: ChEMBL document CHEMBL4715914, “Chemical validation of a druggable site on Hsp27/HSPB1 using in silico solvent mapping and biophysical methods” (Bioorg Med Chem, 2021)

Protein sequences, listed by entry. Tags and fused reporters are not part of them.
UniProt P04792, whole entry: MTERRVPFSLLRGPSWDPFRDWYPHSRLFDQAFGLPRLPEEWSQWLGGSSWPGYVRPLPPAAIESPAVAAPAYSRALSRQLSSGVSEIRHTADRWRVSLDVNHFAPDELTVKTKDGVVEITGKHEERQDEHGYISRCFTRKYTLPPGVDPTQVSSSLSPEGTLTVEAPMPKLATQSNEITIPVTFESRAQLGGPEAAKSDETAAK

biological target: Heat shock protein beta-1 (Homo sapiens, UniProt P04792); assay: Binding affinity to HSP27 (79 to 176 residues) (unknown origin) expressed in Escherichia coli BL21 (DE3) cells by HSQC NMR analysis

| SMILES | Kd(app) |
| --- | --- |
| O=Cc1ccc(Oc2ccc([N+](=O)[O-])cc2[N+](=O)[O-])cc1 | inactive |
| O=[N+]([O-])c1ccc(Oc2ccc(F)c(F)c2F)c([N+](=O)[O-])c1 | inactive |
| O=[N+]([O-])c1ccc(Oc2ccc(Cl)cc2Cl)c([N+](=O)[O-])c1 | inactive |
| O=C(O)c1ccc(Oc2ccc([N+](=O)[O-])cc2[N+](=O)[O-])cc1 | inactive |
| Cc1ccc(Oc2ccc([N+](=O)[O-])cc2[N+](=O)[O-])c(C)c1 | inactive |
| O=[N+]([O-])c1ccc(Sc2ccc(F)cc2F)c([N+](=O)[O-])c1 | inactive |
| O=C(Oc1ccc([N+](=O)[O-])cc1[N+](=O)[O-])c1ccc(F)cc1F | inactive |
| O=[N+]([O-])c1ccc(Oc2ccc(C(F)(F)F)cc2)c([N+](=O)[O-])c1 | inactive |
| O=[N+]([O-])c1ccc(Oc2c(F)c(F)cc(F)c2F)c([N+](=O)[O-])c1 | inactive |
| O=[N+]([O-])c1ccc(Oc2cccc(F)c2)c([N+](=O)[O-])c1 | inactive |
| O=[N+]([O-])c1ccc(Nc2ccc(F)cc2F)c([N+](=O)[O-])c1 | inactive |
| O=[N+]([O-])c1cc([N+](=O)[O-])c(Oc2ccc(F)cc2F)cc1Oc1ccc(F)cc1F | inactive |

Calls of active or inactive are those of the source. The rule behind the calls is not given here.
